Experimental data reported in article PMC6735864 (Nucleic Acids Research, 2019).

T1: HA-Lamin A (human, UniProt P02545 1-646)
T1 sequence: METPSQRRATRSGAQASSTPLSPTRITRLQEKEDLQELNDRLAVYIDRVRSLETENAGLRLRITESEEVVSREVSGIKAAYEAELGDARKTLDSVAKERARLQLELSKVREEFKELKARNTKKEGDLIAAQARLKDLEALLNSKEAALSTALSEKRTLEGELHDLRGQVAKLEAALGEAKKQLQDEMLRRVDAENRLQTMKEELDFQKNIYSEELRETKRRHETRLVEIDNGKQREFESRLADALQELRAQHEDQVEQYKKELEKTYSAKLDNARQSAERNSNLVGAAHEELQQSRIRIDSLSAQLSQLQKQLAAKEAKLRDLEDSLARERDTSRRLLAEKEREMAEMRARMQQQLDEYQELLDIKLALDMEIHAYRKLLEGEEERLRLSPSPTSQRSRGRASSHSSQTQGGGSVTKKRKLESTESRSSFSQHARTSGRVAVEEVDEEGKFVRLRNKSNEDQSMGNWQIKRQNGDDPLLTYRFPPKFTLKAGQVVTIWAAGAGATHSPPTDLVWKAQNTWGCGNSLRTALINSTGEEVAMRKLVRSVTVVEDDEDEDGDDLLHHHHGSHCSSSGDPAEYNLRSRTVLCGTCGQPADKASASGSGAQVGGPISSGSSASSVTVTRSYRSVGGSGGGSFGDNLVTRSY


Target: T1, HA-Lamin A
Assay: pull-down

Row | Binder | binding result
1 | Histone H3 ([…]) peptide, biotinylated (biotin on the added C-terminal lysine; C-terminal amide) peptide: not shown | binds
2 | Histone H3K18me2 ([…]) peptide, biotinylated (dimethyl-lysine at 18; biotin on the added C-terminal lysine; C-terminal amide) peptide: not shown | binds
